# Test results published in article PMC9492542, “Brain-restricted mTOR inhibition with binary pharmacology” (Nature, 2022).
# Sequences of proteins named here, by UniProt entry; tags and fusion partners are left off. A change or cut given only in a name is not applied to a line headed by its entry.
# UniProt Q86Z02: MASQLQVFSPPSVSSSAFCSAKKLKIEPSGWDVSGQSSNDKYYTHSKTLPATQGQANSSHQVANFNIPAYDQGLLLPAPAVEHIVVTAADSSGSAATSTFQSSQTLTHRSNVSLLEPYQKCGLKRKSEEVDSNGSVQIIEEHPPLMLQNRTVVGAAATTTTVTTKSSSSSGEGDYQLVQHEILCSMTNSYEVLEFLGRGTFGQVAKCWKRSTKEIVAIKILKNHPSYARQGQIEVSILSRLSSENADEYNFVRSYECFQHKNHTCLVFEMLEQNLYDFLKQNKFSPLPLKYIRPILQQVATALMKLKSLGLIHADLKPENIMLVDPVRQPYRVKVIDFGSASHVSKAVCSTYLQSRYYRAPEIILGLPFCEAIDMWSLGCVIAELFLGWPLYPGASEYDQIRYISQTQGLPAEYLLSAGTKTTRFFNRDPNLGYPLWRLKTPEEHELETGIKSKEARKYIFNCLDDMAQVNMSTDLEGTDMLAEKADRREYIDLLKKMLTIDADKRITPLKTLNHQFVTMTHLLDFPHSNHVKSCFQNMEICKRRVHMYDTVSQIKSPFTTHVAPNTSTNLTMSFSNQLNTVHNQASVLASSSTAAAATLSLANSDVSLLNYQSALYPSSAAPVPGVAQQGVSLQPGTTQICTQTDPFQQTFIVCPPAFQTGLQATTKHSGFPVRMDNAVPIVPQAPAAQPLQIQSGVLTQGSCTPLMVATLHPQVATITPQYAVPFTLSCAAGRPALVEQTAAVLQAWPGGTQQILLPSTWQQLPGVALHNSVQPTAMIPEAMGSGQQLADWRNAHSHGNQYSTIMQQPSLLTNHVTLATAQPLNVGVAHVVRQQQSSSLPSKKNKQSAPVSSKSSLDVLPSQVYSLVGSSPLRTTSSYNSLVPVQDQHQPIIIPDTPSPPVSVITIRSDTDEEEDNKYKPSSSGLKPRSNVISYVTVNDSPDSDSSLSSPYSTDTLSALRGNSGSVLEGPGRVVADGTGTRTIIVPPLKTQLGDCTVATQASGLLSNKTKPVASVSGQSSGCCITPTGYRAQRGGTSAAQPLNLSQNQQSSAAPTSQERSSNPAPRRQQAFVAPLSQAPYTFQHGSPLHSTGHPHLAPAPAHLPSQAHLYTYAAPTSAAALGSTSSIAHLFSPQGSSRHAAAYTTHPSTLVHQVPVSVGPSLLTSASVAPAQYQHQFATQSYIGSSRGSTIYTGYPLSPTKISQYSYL
# Key:
# 476 purified kinases [1] = molecular target: T1, 476 purified kinases (Homo sapiens, UniProt P29320); details: 10 nM compound + 10 µM FKBP12
# T1 sequence (P29320 21-983): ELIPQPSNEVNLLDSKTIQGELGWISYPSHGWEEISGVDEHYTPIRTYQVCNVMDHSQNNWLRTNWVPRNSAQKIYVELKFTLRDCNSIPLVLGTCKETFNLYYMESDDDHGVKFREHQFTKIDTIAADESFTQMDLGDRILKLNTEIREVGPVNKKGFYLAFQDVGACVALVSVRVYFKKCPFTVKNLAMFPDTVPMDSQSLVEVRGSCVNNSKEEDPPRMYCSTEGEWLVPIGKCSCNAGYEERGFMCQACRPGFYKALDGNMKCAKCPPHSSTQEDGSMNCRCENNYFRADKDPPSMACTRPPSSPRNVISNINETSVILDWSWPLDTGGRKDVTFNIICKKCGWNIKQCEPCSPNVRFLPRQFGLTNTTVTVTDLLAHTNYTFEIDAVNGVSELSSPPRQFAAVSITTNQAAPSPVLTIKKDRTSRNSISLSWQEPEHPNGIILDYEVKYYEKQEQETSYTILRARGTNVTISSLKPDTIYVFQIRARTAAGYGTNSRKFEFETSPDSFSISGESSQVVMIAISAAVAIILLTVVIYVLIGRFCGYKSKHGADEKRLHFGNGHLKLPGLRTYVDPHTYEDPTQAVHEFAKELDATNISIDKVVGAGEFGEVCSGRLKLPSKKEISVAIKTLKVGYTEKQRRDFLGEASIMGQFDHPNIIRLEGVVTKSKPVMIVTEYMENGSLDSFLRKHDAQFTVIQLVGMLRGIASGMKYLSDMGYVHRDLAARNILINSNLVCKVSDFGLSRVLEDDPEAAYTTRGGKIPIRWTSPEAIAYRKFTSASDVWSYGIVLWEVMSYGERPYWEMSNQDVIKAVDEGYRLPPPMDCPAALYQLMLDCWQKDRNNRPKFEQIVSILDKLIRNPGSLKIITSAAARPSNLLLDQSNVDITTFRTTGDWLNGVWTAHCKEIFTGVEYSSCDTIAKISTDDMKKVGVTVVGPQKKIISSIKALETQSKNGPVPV
# 476 purified kinases [2] = molecular target: 476 purified kinases (Homo sapiens, UniProt Q86Z02); details: ZLYTE; 10 nM + 10 µM FKBP12
# human PBMCs = experiment: Proliferation of anti-CD3/anti-CD28 stimulated PBMCs (120 h); type: cell-based; design: unit not given here; details: 0.137174 nM Rapamycin, +10 μM RapaBlock
SMILES,EPHA3 (LanthaScreen Binding) (476 purified kinases [1]),HIPK1 (Myak) (kinase profiling) (476 purified kinases [2]),PBMC cell proliferation (human PBMCs)
Cc1nc(Nc2ncc(C(=O)Nc3c(C)cccc3Cl)s2)cc(N2CCN(CCO)CC2)n1 [Dasatinib],102,8,–
CO[C@H]1C[C@@H]2CC[C@@H](C)[C@@](O)(O2)C(=O)C(=O)N2CCCC[C@H]2C(=O)O[C@H]([C@H](C)C[C@@H]2CC[C@@H](O)[C@H](OC)C2)CC(=O)[C@H](C)/C=C(\C)[C@@H](O)[C@@H](OC)C(=O)[C@H](C)C[C@H](C)/C=C/C=C/C=C/1C [Rapamycin],–,–,109.6
